{
  "sequences": {"note": "The chains behind the UniProt entries cited, without tags or fusion partners. Where a name states a change or a piece, a line headed by the entry shows the natural chain unless it says otherwise.", "UniProt P34981": "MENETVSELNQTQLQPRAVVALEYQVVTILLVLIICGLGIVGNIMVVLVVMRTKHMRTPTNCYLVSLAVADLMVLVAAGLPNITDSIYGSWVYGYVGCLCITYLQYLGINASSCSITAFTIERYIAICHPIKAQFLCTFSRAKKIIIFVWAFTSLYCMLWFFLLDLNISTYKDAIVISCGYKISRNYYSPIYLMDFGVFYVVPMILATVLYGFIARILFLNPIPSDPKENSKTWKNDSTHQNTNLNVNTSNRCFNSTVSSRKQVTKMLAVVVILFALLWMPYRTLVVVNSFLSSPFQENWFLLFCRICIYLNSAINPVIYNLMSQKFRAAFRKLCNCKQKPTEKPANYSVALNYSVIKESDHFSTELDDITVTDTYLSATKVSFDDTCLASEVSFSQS"},
  "source": "PubChem BioAssay AID493056",
  "about": "(National Center for Advancing Translational Sciences (NCATS), 2011)",
  "note": "Where “and” joins values, the source holds several entries; their conditions need not be identical. Equal entries are not always repeated. This is a selection; strong and weak results do not stand in their true shares. Calls of active or inactive are those of the source. No stated cut-off is given here; in the data, active means enhancement above about 30%; inactive means the rest.",
  "data": [
    {"biological_target": "Thyrotropin-releasing hormone receptor (Homo sapiens) (UniProt P34981)", "test": "qHTS for Small Molecule Agonists and Allosteric Enhancers of Human TRH Receptor: Primary Screen for Enhancers; further: 0% is about no effect", "conditions": "TRHR cells, fluo-8 calcium fluorescence, EC20 TRH enhancement; at 2 µM; stronger effect = higher value", "from_the_text": "NIH Chemical Genomics Center [NCGC] NIH Molecular Libraries Probe Centers Network [MLPCN] MLPCN Grant: MH089816-01 Assay Submitter (PI): Marvin Gershengorn This project aims to identify small drug-like molecules that activate (agonists) the thyrotropin releasing hormone (TRH) receptor (TRHR) or enhance its TRH-stimulated activity (allosteric enhancers). TRHR, a drug-accessible cell surface receptor expressed in specific brain regions, and its ligand TRH have been implicated in several central nervous system disorders, including depression and anxiety. Small molecule TRHR agonists or allosteric enhancers that are metabolically stable and able to cross the blood-brain barrier might serve as probes to elucidate the roles of brain TRH receptors in animal models, and might be valuable as lead compounds for the development of drugs to treat patients with central nervous system disorders. Upon TRHR-Gq activation in TRHR cells, intracellular calcium is released from stores in the endoplasmic reticulum. […] This primary screen measures compound-induced enhancement of an EC20 stimulation of the receptor by its native ligand.\nFor the HTS assay freshly prepared cells are plated at a density of 2000/well in 3 ul of complete DMEM medium containing 10% serum in 1536-well plates and cultured over night at 37 C in a humidified incubator with 5% CO2. The next day, 2 ul of a no wash calcium dye (ABD Bioquest) was added to the cells and plates were incubated at room temperature for 1 hour. For the assay, assay plates were loaded into the FDSS kinetic plate reader. A 10 cycle (1 second/cycle) baseline measurement is taken and then the FDSS online 1536 pintool delivers 23 nl of compound library (as well as TRH controls) to the plate. The plate is measured for kinetically at 1 cycle/sec for 180 seconds and is considered to be the agonist portion of the assay (eg, compounds which activate a positive calcium response during this portion are flagged as potential agonists). Following the 180 second read, 1 ul of either an EC20 (positive modulation assay) is delivered by an onboard pipette head. Measurements are taken kinetically for an additional 180 seconds. TRHR FDSS Screening Protocol 1. Reagent, 3 uL 2000 cells/well 1536 TC treated Black plate in media containing 10% FCS 2. Time, 18 hours, 33.5C 5% CO2 (cells grown at 37C) 3. Reagent, 2 uL ABD fluo-8 Ca dye 4. Time, 30 min-1.5hrs hours, Room temp (6 plates/batch) 5. Detector, EX 480/EM 530C, FDSS 10 cycles baseline (1sec/cycle) 6. Compound, 23 nL of stock solution from library 7. Detector, EX 480/EM 530C, FDSS 230 cycles (1sec/cycle) Agonist mode 8. Compound, 1 ul EC20 of TRH made up in HEPES HBSS, 10 nM final 9. Detector, EX 480/EM 530C, FDSS 100 cycles (1sec/cycle) Potentiator mode", "values": [
      {"smiles": "O=[N+]([O-])c1cc([N+](=O)[O-])c(CCN2CCOCC2)c([N+](=O)[O-])c1", "enhancement": "inactive: 11.3%"},
      {"smiles": "CCN(N=Nc1nonc1N)c1nonc1N", "enhancement": "inactive: -2.72%"},
      {"smiles": "Nc1cccc2ccc([As](=O)(O)O)cc12", "enhancement": "inactive: -3.02%"},
      {"smiles": "O=C(O)c1ccccc1[As](=O)(O)O", "enhancement": "inactive: 10.1%"},
      {"smiles": "CC(=O)Nc1ccc([As](=O)(O)O)cc1", "enhancement": "inactive: 5.28%"},
      {"smiles": "O=P(Nc1nc2ccc(Cl)cc2s1)(c1ccccc1)c1ccccc1", "enhancement": "inactive: -5.63%"},
      {"smiles": "Cc1ccc(NP(=O)(Oc2ccccc2F)Oc2ccccc2F)nc1", "enhancement": "inactive: -0.726%"},
      {"smiles": "CCOP(=O)(Nc1ccccc1)OCC", "enhancement": "inactive: 25% and inactive: -1.83%"},
      {"smiles": "Cc1cc(SC(NC(=O)c2ccc(F)cc2)C(Cl)(Cl)Cl)ncn1", "note": "(stereo not drawn)", "enhancement": "inactive: 0.912%"},
      {"smiles": "Cc1ccc(OP(=O)(Nc2ccccn2)Oc2ccc(C)cc2)cc1", "enhancement": "inactive: 3.4%"},
      {"smiles": "CC(=O)NC(SC(=S)N(CC(C)C)CC(C)C)C(Cl)(Cl)Cl", "note": "(stereo not drawn)", "enhancement": "inactive: -4.67%"},
      {"smiles": "COC(=O)c1cc2c(s1)N=C(c1ccccc1)N(C)P2(=O)N1CCOCC1", "note": "(stereo not drawn)", "enhancement": "inactive: 0.526%"},
      {"smiles": "O=C(OC1CN2CCC1CC2)c1ccccc1", "note": "(stereo not drawn)", "enhancement": "inactive: 7.6%"},
      {"smiles": "CN(C)C(=O)Oc1noc2ccccc12", "enhancement": "inactive: -3.59%"},
      {"smiles": "O=c1c2cc([N+](=O)[O-])ccc2[nH]c2c([N+](=O)[O-])cc([N+](=O)[O-])cc12", "enhancement": "inactive: 5.74%"},
      {"smiles": "Cc1ccccc1OP(=O)(Nc1ccccn1)Oc1ccccc1C", "enhancement": "inactive: -5.46%"},
      {"smiles": "O=C(NC1CCS(=O)(=O)C1)NP(=S)(Oc1ccccc1)Oc1ccccc1", "note": "(stereo not drawn)", "enhancement": "inactive: 1.09%"},
      {"smiles": "CCNC(=S)/N=C(\\N)N[N+](=O)[O-]", "enhancement": "inactive: -0.899%"},
      {"smiles": "CCOC(=O)NC(Sc1ccccc1)C(Cl)(Cl)Cl", "note": "(stereo not drawn)", "enhancement": "inactive: -4.72%"},
      {"smiles": "Cc1ccc(NP(=O)(Oc2cccc(C)c2)Oc2cccc(C)c2)nc1", "enhancement": "inactive: -1.02%"},
      {"smiles": "c1ccc(-c2nn[nH]n2)c(-c2nn[nH]n2)c1", "enhancement": "inactive: 2.85%"},
      {"smiles": "CC(=O)c1ccc(N2CC2c2ccncc2)cc1", "note": "(stereo not drawn)", "enhancement": "inactive: -2.96%"},
      {"smiles": "C[C@@H]1C=CCP(=O)(Oc2ccccc2)O1", "note": "(stereo partly drawn)", "enhancement": "inactive: 1.41%"},
      {"smiles": "C[C@H]1OP(=O)(Oc2ccccc2)C[C@@H]2O[C@@H]21", "note": "(stereo partly drawn)", "enhancement": "inactive: 11.7%"},
      {"smiles": "Cc1ccccc1CN(C)C(=O)COC(=O)C(O)(c1ccccc1)c1ccccc1", "enhancement": "inactive: 1.15%"},
      {"smiles": "CC(=O)Nc1ccc(Oc2c([N+](=O)[O-])cc([N+](=O)[O-])cc2[N+](=O)[O-])cc1", "enhancement": "inactive: -1.3%"},
      {"smiles": "CC(=O)Nc1ccc([As](=O)(O)O)c(O)c1", "enhancement": "inactive: -3.82%"},
      {"smiles": "O=P1(Nc2nc3ccc(Cl)cc3s2)COc2ccccc2O1", "note": "(stereo not drawn)", "enhancement": "inactive: 3.02%"},
      {"smiles": "CC(C)(C)C(=O)NC(Sc1ccccc1)C(Cl)(Cl)Cl", "note": "(stereo not drawn)", "enhancement": "inactive: 3.77%"},
      {"smiles": "O=P(Nc1nccs1)(c1ccccc1)c1ccccc1", "enhancement": "inactive: -11.8%"},
      {"smiles": "CC(C)C(=O)NC(Sc1ccccc1)C(Cl)(Cl)Cl", "note": "(stereo not drawn)", "enhancement": "inactive: -1.2%"},
      {"smiles": "c1nnnn1CCn1cnnn1", "enhancement": "inactive: 16.2%"},
      {"smiles": "O=[N+]([O-])c1ncn(CCn2cnc([N+](=O)[O-])n2)n1", "enhancement": "inactive: 0.487%"},
      {"smiles": "CC(=O)NC(SC(=S)N(C)C)C(Cl)(Cl)Cl", "note": "(stereo not drawn)", "enhancement": "inactive: 5.8%"},
      {"smiles": "O=[N+]([O-])c1ccc(O)c(/C=N/Nc2ccc([N+](=O)[O-])cc2[N+](=O)[O-])c1", "enhancement": "inactive: -6.35%"},
      {"smiles": "O=[As](O)(c1ccccc1)c1ccc(O)cc1", "enhancement": "inactive: 2.42%"},
      {"smiles": "Nc1ccc([As](=O)(O)c2ccc([N+](=O)[O-])cc2)cc1", "enhancement": "inactive: -0.347%"},
      {"smiles": "C(Cc1nn[nH]n1)Cc1nn[nH]n1", "enhancement": "inactive: -2.77%"},
      {"smiles": "O=C(OC1CN2CCC1CC2)c1cccc(Cl)c1", "note": "(stereo not drawn)", "enhancement": "inactive: -0.0857%"},
      {"smiles": "CN(C)C1(CNC(=O)c2ccc(Cl)c(S(N)(=O)=O)c2)CCCCC1", "enhancement": "inactive: 1.18%"},
      {"smiles": "O=P(Nc1ccccn1)(c1ccc(Br)cc1)c1ccc(Br)cc1", "enhancement": "inactive: 0.298%"},
      {"smiles": "C[C@H]1OP(=O)(Oc2ccccc2)[C@H](O)[C@H](O)[C@H]1N=[N+]=[N-]", "note": "(stereo partly drawn)", "enhancement": "inactive: -4.87%"},
      {"smiles": "O=P(Nc1nc2ccccc2s1)(c1ccccc1)c1ccccc1", "enhancement": "inactive: -0.504%"}
    ]}
  ]
}
